The subject of assay [1] is red blood cells (RBCs) from human subjects. The assay can be described thus: Dose-dependent staining of RBCs, flow cytometry (MEDFI). Format: cell-based. The settings on record: 0.03, 0.1, 0.3, 1 and 3 μM; RBCs 200 000 cells/mL of 3 human subjects; channel FL1 (Ex. 1), FL3 (Ex. 9). Here is the method: The blood from an animal or a human subject is sampled in specific 5 mL tube, such as lithium-heparin tube. The blood is manually mixed by inversion before use.
Red blood cells (RBCs) are obtained from whole blood after centrifugation at 200 g for 10 minutes at room temperature. RBCs pellet down and segregate from white blood cells, platelets and plasma. 5 μL of RBCs are pipetted, diluted 1000 times in 5 mL of Flow cytometry buffer (FACS buffer: 150 mM of NaCl; 1 mM of D-Glucose; 5 mM of Na2HPO4; 0.5 mM CaCl2) and either numbered by manual counting on disposable Malassez-like counting cell (X100 Cellule Fast Read, Fisher Scientific, Ref #11762712) with a microscope or counted with Flow count Fluorospheres (Beckman, Ref 7547053) so as to obtain a cell concentration of stock solution to be used in the test. […]
From these different concentration stocks, the same quantity (4) of compounds at desired concentration to be tested is added to erythrocytes in each FACS vial to obtain the same % of DMSO (0.5% of DMSO) at the end. […] In all experiments, a control is performed with the final amount of compound solvent (DMSO alone, without test compound), in order to obtain the auto-fluorescence of the RBCs. […]

Assay [2] relates to RBCs from transgenic APP/PS1 mice versus age-matched Wild-Type mice. As to the kind of experiment: RBC staining in Alzheimer animal model, transgenic versus wild type. The class given is cell-based. On the procedure:
In studies comparing intensities of the staining of RBCs from Alzheimer patients and healthy controls or subjects with anon-Alzheimer disease or from animal models, predictive modeling with logistic regression model and classification is performed. ROC (Receiver Operating Characteristic) Curve(s) enabling to evaluate the assay accuracy (specificity and sensitivity of the assay). To generate a ROC analysis, a logistic model is used to give a score to each patient. At each threshold between the minimum and the maximum of the population score, a matrix based on the prediction of the model compared to the real data is constructed. Based on these matrices, the accuracy, the sensitivity, the specificity, the negative and the positive predictive value are calculated. With the sensitivity and the specificity, the ROC curve is established and the AUROC (Area Under the Receiver Operating Characteristic) is calculated for the tested compound of the present invention targeting respective biomarker: PKC or Aβ (Aβ1-42 or shorter fragments). The same procedure is applied for the combination of two or more compounds tested. In this case, the class of the patients is indicated with the logical operators (AND, OR). Individual cut-off value from logistic regression model is calculated for each biomarker stained with a compound of the present invention. […]

“Lys-[N-2-(3-CO—CH2—S-2,5-dioxo-pyrrolidinyl)-ethylamido-Bodipy]-Beta-Amyloid (1-42) [Ex. 1]”: the “staining of RBCs (index MEDFI)” value in assay [1] is reported as “dose-dependent staining”. Moreover, the “discrimination between transgenic and wild type mice by RBC staining” value in assay [2] (1 μM, 5 transgenic mice and 6 age-matched wild type mice) is given as “excellent accuracy”. Also, the “discrimination between the transgenic mouse group and control mouse group by RBC staining” value in assay [2] (concentration not given) is recorded as “good accuracy”.
